ChEMBL document CHEMBL1143439, “Open-chain half-bastadins mimic the effects of cyclic bastadins on calcium homeostasis in cultured neurons” (Bioorg Med Chem Lett, 2008)

Amino acid sequences for entries named in this document (tags omitted). A change or cut given only in a name is not applied to a line headed by its entry.
UniProt P21817: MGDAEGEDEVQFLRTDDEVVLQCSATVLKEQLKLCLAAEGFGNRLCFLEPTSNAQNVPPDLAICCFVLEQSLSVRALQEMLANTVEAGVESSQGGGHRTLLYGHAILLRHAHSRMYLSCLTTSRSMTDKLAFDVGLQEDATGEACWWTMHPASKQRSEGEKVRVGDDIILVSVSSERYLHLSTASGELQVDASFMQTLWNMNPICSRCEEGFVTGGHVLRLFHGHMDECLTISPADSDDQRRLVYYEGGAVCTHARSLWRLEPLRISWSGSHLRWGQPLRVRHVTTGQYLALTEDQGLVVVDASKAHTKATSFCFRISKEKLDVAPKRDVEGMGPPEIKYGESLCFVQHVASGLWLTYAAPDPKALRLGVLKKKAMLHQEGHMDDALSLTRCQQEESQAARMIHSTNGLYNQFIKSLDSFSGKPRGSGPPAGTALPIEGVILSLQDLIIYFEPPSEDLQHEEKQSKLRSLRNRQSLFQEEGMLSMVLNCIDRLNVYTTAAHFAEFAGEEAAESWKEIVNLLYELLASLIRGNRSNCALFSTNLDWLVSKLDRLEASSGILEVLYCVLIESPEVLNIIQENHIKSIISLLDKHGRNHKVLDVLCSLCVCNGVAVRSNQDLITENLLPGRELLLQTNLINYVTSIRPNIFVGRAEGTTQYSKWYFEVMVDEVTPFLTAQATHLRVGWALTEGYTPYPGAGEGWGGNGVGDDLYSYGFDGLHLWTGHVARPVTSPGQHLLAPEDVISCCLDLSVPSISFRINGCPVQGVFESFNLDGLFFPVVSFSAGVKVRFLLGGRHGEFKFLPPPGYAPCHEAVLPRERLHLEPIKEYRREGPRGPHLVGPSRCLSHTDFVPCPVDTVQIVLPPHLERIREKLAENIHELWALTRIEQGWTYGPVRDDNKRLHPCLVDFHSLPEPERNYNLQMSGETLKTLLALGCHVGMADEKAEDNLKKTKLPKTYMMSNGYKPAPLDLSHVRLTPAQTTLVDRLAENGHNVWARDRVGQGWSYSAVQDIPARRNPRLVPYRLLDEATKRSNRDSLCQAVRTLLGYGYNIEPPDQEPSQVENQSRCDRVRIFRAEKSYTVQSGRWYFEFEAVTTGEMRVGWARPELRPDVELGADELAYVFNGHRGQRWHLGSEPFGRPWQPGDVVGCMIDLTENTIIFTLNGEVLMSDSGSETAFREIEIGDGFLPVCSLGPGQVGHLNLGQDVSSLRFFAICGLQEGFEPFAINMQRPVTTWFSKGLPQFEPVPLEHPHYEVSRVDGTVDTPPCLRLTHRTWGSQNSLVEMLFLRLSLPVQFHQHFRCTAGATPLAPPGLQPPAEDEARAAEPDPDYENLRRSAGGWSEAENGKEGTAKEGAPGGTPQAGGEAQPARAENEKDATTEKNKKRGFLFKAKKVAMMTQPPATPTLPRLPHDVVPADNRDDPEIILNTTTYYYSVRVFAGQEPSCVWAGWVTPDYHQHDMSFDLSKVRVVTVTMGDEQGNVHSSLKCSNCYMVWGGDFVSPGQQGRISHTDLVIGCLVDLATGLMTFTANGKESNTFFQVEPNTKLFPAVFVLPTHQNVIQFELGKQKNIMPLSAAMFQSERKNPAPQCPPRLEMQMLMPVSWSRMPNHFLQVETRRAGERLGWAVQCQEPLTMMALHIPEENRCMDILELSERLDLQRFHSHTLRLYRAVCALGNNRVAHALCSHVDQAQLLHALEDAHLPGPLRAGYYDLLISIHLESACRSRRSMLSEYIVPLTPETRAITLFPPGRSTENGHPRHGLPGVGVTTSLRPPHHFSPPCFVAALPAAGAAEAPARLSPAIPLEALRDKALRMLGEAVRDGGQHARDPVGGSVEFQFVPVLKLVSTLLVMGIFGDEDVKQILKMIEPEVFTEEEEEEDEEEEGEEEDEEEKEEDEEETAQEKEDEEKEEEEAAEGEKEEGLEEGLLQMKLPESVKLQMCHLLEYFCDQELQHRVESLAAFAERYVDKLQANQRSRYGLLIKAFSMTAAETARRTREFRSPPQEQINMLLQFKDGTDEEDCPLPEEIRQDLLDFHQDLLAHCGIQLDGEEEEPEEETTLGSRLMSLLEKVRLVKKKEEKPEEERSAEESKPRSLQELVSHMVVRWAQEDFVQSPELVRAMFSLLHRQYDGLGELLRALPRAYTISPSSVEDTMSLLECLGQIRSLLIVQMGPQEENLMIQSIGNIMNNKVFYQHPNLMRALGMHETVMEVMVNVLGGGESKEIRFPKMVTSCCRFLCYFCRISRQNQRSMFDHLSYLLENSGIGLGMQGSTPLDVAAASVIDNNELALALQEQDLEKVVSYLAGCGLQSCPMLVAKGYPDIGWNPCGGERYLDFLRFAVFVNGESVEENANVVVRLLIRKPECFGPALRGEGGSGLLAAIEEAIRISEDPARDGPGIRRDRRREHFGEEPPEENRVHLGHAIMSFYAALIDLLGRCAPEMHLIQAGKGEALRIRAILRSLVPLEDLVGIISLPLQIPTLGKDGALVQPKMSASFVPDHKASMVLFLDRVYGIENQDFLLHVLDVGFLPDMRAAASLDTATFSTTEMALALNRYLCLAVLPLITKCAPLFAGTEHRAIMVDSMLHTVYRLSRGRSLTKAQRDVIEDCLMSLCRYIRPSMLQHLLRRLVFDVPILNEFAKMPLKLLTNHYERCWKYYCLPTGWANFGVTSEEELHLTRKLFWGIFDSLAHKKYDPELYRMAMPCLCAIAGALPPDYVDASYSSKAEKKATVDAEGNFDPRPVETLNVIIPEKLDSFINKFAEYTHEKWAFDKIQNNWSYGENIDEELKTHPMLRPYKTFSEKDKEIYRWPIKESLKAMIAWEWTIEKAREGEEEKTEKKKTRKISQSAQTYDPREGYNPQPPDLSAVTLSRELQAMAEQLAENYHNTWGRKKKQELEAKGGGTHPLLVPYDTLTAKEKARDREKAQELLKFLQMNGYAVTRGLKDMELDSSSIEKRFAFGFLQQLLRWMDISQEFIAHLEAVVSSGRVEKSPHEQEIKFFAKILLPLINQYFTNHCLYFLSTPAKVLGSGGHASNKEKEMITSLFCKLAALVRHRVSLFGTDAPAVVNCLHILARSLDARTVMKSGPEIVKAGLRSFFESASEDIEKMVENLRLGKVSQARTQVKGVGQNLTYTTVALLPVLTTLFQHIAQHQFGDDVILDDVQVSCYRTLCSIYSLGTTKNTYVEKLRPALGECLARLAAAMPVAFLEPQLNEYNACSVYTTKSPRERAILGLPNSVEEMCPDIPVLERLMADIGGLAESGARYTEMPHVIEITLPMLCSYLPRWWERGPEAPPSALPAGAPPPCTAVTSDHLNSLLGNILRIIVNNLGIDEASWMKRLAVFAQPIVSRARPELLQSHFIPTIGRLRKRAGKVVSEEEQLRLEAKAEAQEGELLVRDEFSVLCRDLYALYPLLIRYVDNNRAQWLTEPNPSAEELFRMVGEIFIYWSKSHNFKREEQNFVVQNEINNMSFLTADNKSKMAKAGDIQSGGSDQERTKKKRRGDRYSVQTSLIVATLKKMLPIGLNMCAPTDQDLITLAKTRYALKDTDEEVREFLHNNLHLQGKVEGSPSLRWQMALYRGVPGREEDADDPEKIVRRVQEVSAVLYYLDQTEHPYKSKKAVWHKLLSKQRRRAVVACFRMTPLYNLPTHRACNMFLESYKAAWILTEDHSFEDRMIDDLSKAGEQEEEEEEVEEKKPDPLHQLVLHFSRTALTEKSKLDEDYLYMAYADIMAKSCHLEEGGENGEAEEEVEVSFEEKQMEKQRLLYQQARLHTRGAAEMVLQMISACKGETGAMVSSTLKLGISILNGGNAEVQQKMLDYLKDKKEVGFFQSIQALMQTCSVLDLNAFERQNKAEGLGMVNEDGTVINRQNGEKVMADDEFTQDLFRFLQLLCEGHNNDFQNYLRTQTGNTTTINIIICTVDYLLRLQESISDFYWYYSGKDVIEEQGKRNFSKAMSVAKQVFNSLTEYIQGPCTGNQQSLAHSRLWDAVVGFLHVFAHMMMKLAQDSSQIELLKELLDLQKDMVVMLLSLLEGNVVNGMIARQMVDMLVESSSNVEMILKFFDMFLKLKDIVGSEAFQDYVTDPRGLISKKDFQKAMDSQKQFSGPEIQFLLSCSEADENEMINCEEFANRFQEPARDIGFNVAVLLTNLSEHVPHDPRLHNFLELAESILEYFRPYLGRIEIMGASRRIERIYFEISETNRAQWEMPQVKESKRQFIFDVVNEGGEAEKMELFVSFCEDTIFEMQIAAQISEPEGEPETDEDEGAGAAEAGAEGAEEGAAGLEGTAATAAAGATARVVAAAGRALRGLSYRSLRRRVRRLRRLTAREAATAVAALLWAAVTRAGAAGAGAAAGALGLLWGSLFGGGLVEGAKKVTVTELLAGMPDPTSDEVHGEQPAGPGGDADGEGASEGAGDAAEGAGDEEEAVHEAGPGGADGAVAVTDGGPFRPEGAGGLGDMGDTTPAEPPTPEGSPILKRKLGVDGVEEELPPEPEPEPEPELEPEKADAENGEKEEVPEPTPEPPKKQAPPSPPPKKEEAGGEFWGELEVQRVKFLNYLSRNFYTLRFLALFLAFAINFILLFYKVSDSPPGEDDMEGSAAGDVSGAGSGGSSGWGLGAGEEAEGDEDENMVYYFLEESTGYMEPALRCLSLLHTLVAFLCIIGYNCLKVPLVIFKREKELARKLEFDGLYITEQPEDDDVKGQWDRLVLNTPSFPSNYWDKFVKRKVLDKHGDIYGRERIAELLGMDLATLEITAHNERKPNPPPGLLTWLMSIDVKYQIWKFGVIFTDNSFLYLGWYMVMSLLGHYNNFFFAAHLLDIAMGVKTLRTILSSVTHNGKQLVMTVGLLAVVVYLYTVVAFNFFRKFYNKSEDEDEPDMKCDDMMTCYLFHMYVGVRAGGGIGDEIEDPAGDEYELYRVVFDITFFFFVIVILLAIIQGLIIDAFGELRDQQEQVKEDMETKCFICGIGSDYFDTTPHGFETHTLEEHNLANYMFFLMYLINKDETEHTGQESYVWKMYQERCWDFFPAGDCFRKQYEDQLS

Target: Ryanodine receptor 1 (Homo sapiens, UniProt P21817)
Assay: Binding affinity to RYR1 channels by calcium mobilization assay

Compound: O=C1N/C=C/c2ccc(c(Br)c2)Oc2cc(cc(Br)c2O)CCNC(=O)/C(=N/O)Cc2ccc(c(Br)c2)Oc2cc(cc(Br)c2O)C/C1=N\O
- EC50: 6.3 µM
